# Nrf2 inh: Nrf2 pathway inhibition; A549 ARE-Fluc reporter, luciferase luminescence, 18-24 h; Potency, µM (titrated, usually from 46 µM), inactives show top-dose activity change, negative = inhibition, most hits filed as inhibitors; hit rate 2.1% among 360,000; note: potency is the fitted concentration of half-maximal effect; % is set by controls: 0 for no effect and ±100 for the full control effect; nearly all actives have a fitted effect of over 60% in size
#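 A549 ARE_Fluc cells (5000/well, 5% FBS OPTI-MEM) pre-incubated 2 h, then treated with compounds 18-24 h at 37C/5% CO2 in concentration-response. CellTiter-Fluor viability read first; BugLite luciferase luminescence after 15 min at room temperature gives Nrf2 activity.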
# GALK inhibitor: blocks human galactokinase activity | Potency, µM (doses to about 57.5 µM), inactives show at the highest dose activity change, negative = inhibition, usual class: inhibitors | Purified GALK, Kinase-Glo residual ATP luminescence | hit rate 0.007% among 270,000 | P51570; note: potency is the fitted concentration of half-maximal effect; % is set by controls: 0 for no effect and ±100 for the full control effect
#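 Human GALK (5 nM) with 35 uM ATP and 100 uM galactose in 20 mM HEPES pH 8.0, 5 mM MgCl2, 60 mM NaCl, 1 mM DTT, 0.01% BSA. After 1 h at room temperature, leftover ATP was read by Kinase-Glo Plus luminescence.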
# Nrf2 activator: activates Nrf2 signaling | AREc32 ARE-luciferase reporter (MCF7-derived line), luminescence, 24 h | Potency, µM (top dose mostly 46.1 µM), without a hit: at the top dose activation, most hits filed as activators | AID 624171 | hit rate 0.31% among 410,000; note: potency is the fitted concentration of half-maximal effect; % of control where 0% means no effect; nearly all actives have a fitted effect of over 65% in size
#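 Each well held 1000 AREc32 cells, which were incubated with compound for 24 hr at 37 deg C after overnight attachment, and ARE reporter activity was quantified by firefly luciferase luminescence.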
# miR-21 FLuc: raises the signal of a miR-21 reporter; 340,000 tested, under 10 active; HeLa miR-21 FLuc reporter, luciferase, 48 h; Potency, µM (series often up to 38.3 µM), for inactives: at the highest dose reporter change, positive = more light; active = well fitted rising curve with a large enough effect; inconclusive = small, poorly fitted or top-dose-only effect; inactive = no such curve, though single readings can be large or run the other way;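 further: % of control where 0% means no effect; miR-21 action dims this reporter so a rising signal means less miR-21 action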
#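 Using DMEM plus 10% FBS, HeLa miR-21-FLuc cells are incubated with test compounds (final up to about 40uM) for 48 hours; firefly luciferase signal is then imaged following reagent-mediated lysis.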
# PI4K2A inh: inhibitors of human PI4K2A; Q9BTU6; purified PI4K2A, ADP-Glo luminescence, 1 h; stronger effect = lower value; activity change, negative = inhibition, % at 76.9 µM; hit rate 0.13% among 420,000; in the data active = activity change below about -50%; inconclusive = mostly about -30% to -49%;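 note: -100% = wells without enzyme as full effect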
#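 ADP-Glo luminescence measured ADP generated by PI4K2A enzyme (4 ug/mL before mixing) with 1.2 mM PI substrate (pre-mix) and 300 microM ATP (pre-mix). Tris pH7.5 buffer with MgCl2, Triton X-100; 1 h reaction at ambient temperature.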
# A549 tox: A549 cytotoxicity, counter-screen for Nrf2 inhibitors | A549 ARE-Fluc cells, CellTiter-Fluor viability, 18-24 h | Potency, µM (doses to about 46 µM), for the others: at the top dose activity change, negative = cytotoxicity, actives largely listed as inhibitors | hit rate 0.16% among 390,000 | AID 504648; note: potency is the fitted concentration of half-maximal effect; % is set by controls: 0 for no effect and ±100 for the full control effect
#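 A549 ARE_Fluc cells in 5% FBS OPTI-MEM were exposed to compounds in concentration-response for 18-24 h at 37 deg C. Viability was read by CellTiter-Fluor fluorescence (Ex 405/Em 525) after 30 min, before the luciferase read.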
# * = called active by the depositor; ? = inconclusive; nt = no result given; ! = repeats disagree. Rows were chosen to be rich in hits. Some 2.2% of all compounds tested hit in one or more screens of this group. Unless noted, calls come from the whole dose curve; as a rule, active = well fitted curve in the direction sought with a large enough effect; inconclusive = small, poorly fitted or top-dose-only effect, or another doubt; inactive = no such curve, though single readings can be large; an effect the other way counts as inactive or inconclusive.
# Letter code – A = Nrf2 inh; B = GALK inhibitor; C = Nrf2 activator; D = miR-21 FLuc; E = PI4K2A inh; F = A549 tox
COc1ccc2[nH]c(C(=O)N/N=C/c3ccc(O)cc3O)cc2c1
  A: 2.3µM* | B: 5% | C: -1% | D: 16% | E: 1 | F: -30%

COc1ccc(/C=N/NC(=O)c2cc3cc(OC)c(OC)cc3[nH]2)cc1
  A: 21µM* | B: 3% | C: 2% | D: 0% | E: -4 | F: 0%

COc1ccc(-c2onc(C)c2C)cc1S(=O)(=O)NC1CCC(C)CC1 (stereo unspecified)
  A: 21µM* | B: nt | C: 1% | D: 9% | E: 1 | F: -24%

COc1ccc(-c2onc(C)c2C)cc1S(=O)(=O)N(C)Cc1ccccc1
  A: 18µM* | B: nt | C: 1% | D: 28% | E: 1 | F: 0%

COc1ccc(-c2onc(C)c2C)cc1S(=O)(=O)NC1CCCCC1
  A: -21% | B: nt | C: 3% | D: 0% | E: -2 | F: -1%

COC(=O)C1CN(Cc2ccc(C)cc2)CCS(=O)(=O)N1Cc1cn(Cc2ccc(OC)cc2)nn1 (stereo unspecified)
  A: nt | B: nt | C: nt | D: nt | E: -4 | F: nt

Nn1c(SCC(=O)Nc2ccccc2-c2ccccc2)nnc1-c1n[nH]c2c1CCC2
  A: nt | B: nt | C: nt | D: nt | E: 1 | F: nt

O=C(Cn1nc(N2CCN(c3ccccc3)CC2)ccc1=O)Nc1ccc(F)cc1F
  A: 1% | B: nt | C: 3% | D: -11% | E: -3 | F: -3%

O=C(Nc1ccccc1F)c1ccc(Cn2nc(N3CCN(c4ccccc4)CC3)ccc2=O)o1
  A: 21µM* | B: nt | C: -1% | D: 28% | E: -1 | F: -20%

C=C(C)CN(CC)c1nc(N)c2c(N)nc3c(c2c1C#N)CC(=O)N3C12CC3CC(CC(C3)C1)C2
  A: 13µM* | B: 0% | C: 13% | D: ? | E: ? | F: -17%

# Of the compounds above, three contain an NH in an aromatic ring.
# Letter code – A = Nrf2 inh; B = GALK inhibitor; C = Nrf2 activator; D = miR-21 FLuc; E = PI4K2A inh; F = A549 tox
COc1ccc2[nH]c(C(=O)N/N=C/c3ccc(O)cc3O)cc2c1
  A: 2.3µM* | B: 5% | C: -1% | D: 16% | E: 1 | F: -30%

COc1ccc(/C=N/NC(=O)c2cc3cc(OC)c(OC)cc3[nH]2)cc1
  A: 21µM* | B: 3% | C: 2% | D: 0% | E: -4 | F: 0%

Nn1c(SCC(=O)Nc2ccccc2-c2ccccc2)nnc1-c1n[nH]c2c1CCC2
  A: nt | B: nt | C: nt | D: nt | E: 1 | F: nt

# (next part)
# Letter code – A = Nrf2 inh; B = GALK inhibitor; C = Nrf2 activator; D = miR-21 FLuc; E = PI4K2A inh; F = A549 tox
N#Cc1c(N2CCCC(O)C2)nc(N)c2c(N)nc3c(c12)CC(=O)N3C12CC3CC(CC(C3)C1)C2 (stereo unspecified)
  A: ? | B: nt | C: 6% | D: -19% | E: ? | F: ?

COc1ccc(CC2(CO)CCN(S(=O)(=O)c3c(C)nn(C)c3Cl)CC2)cc1
  A: 2% | B: 7% | C: 1% | D: -5% | E: -5 | F: -4%

Cc1nn(C)c(Cl)c1S(=O)(=O)N1CCC(CO)(CCc2ccccc2)CC1
  A: 21µM* | B: -1% | C: 0% | D: 8% | E: 1 | F: -10%

CC1C/C(=C/c2ccco2)C(=O)/C(=C/c2ccco2)C1 (stereo unspecified)
  A: nt | B: nt | C: nt | D: 7% | E: nt | F: nt

O=C1/C(=C\c2ccco2)CCC/C1=C\c1ccco1
  A: 8% | B: 0% | C: 10µM* | D: 0% | E: -28 | F: 0%

COc1nc(C#N)nc(N2CCCC2)n1
  A: ? | B: nt | C: nt | D: nt | E: nt | F: -4%

CCOc1nc(C#N)nc(N2CCCCC2)n1
  A: 16µM* | B: 2% | C: 5% | D: 13% | E: 38 | F: -20%

COCCCNC(=O)/C=C1\Sc2ccccc2N(Cc2ccccc2F)C1=O
  A: 3% | B: 0% | C: 11µM* | D: -57% | E: -1 | F: 5%

CCN1CCN(CCNC(=O)c2ccc(/C=C3\Sc4ccccc4N(Cc4ccccc4F)C3=O)cc2)CC1
  A: 3% | B: 0% | C: 7% | D: -17% | E: -1 | F: -11%

CCc1cc(C=C(Cl)Cl)oc(=O)c1C
  A: -14% | B: 3% | C: 14µM* | D: 0% | E: 9 | F: -20%

C=C(Cl)COc1cc(C)cc2oc(=O)cc(CC)c12
  A: 9% | B: 0% | C: 0% | D: -2% | E: -4 | F: 19%

COCCCNC(=O)C[C@H]1C[C@@]2(C(=O)OC)C(=C[C@H](COCc3ccccc3)O[C@@H]2C)N(Cc2ccc(Cl)cc2Cl)C1=O
  A: nt | B: nt | C: nt | D: nt | E: -1 | F: nt

Cc1ccc(-c2cnn(-c3ccccc3)c2N)cc1
  A: 15% | B: nt | C: 0% | D: -28% | E: -76* | F: -1%

CC(C)c1cc(C(C)C)c(S(=O)(=O)N2CCC(c3cn4ccccc4n3)CC2)c(C(C)C)c1
  A: nt | B: nt | C: nt | D: nt | E: -3 | F: nt

Cc1ccccc1CNc1ncnc2cc(Cl)ccc12
  A: ? | B: -3% | C: 20% | D: 1% | E: -4 | F: -1%

Cc1ccc(CNc2ncnc3cc(Cl)ccc23)cc1
  A: 21µM* | B: -2% | C: 24% | D: 21% | E: 1 | F: -5%

Cc1ccc(CNc2ncnc3onc(C)c23)cc1
  A: 8.2µM* | B: nt | C: -1% | D: ? | E: -7 | F: -2%

Fc1cc(F)c(CSc2nnc(-c3cccnc3)n2Cc2ccccc2)cc1F
  A: nt | B: nt | C: nt | D: nt | E: -4 | F: nt

COC(=O)[C@]12C[C@H](CC(=O)NCCc3ccccc3OC)C(=O)N(Cc3ccco3)C1=C[C@H](C(C)(C)C)O[C@@H]2C
  A: nt | B: nt | C: nt | D: nt | E: -3 | F: nt

CC(C)C(=O)N1CC[C@H]2[C@H](CCCN2Cc2ccc(F)cc2)C1
  A: nt | B: nt | C: nt | D: nt | E: 2 | F: nt

COc1ccc2cc3cc(C(=O)Nc4ccc5c(c4)OCCO5)oc3nc2c1
  A: 18µM* | B: 3% | C: 2% | D: -17% | E: -9 | F: -25%

O=C(Nc1ccc2c(c1)OCCO2)c1ccc2ccccc2n1
  A: ? | B: 2% | C: 7.9µM* | D: -44% | E: 5 | F: -10%

COc1ccc2cc3cc(C(=O)Nc4cc(OC)c(OC)c(OC)c4)oc3nc2c1
  A: ? | B: -1% | C: -1% | D: 26% | E: 7 | F: -11%

Cc1cc(NC(=O)c2ccc3c(c2)OCCO3)cc(-c2nc3ccccc3o2)c1O
  A: ? | B: nt | C: -1% | D: -10% | E: -1 | F: -8%

O=C(Nc1ccc2oc(-c3ccccc3F)nc2c1)c1ccc2c(c1)OCCO2
  A: 13µM* | B: -2% | C: 0% | D: 9% | E: -7 | F: ?

Cc1cccc(Cn2ncc3c4sc(C)cc4n(C)c3c2=O)c1
  A: -14% | B: nt | C: nt | D: nt | E: nt | F: -3%

CCCCCCC/C=C(\C)[C@@H](O)[C@@H](C)C(=O)N1CCC[C@@H]1C(=O)O
  A: nt | B: nt | C: nt | D: nt | E: -6 | F: nt

COc1ccc(C2Nc3ccccc3C(=O)N2Cc2ccccc2)cc1COc1ccc(F)cc1 (stereo unspecified)
  A: -12% | B: nt | C: nt | D: nt | E: nt | F: 8%

Cc1cccc(C#Cc2ccccc2)n1
  A: ? | B: nt | C: 19% | D: nt | E: -50*! | F: 0%

Nc1ccc(C#Cc2ccccc2)cc1
  A: 9% | B: 0% | C: -1% | D: -2% | E: 1 | F: -13%

COc1ccc(-n2c(SCC(=O)N(CC(C)C)CC(C)C)nnc2-c2ccncc2)cc1
  A: nt | B: nt | C: nt | D: nt | E: 3 | F: nt

CC(=O)NC(CC(=O)OCC(=O)N1CCN(S(=O)(=O)c2ccc(C)cc2C)CC1)c1ccccc1 (stereo unspecified)
  A: 21µM* | B: nt | C: 1% | D: nt | E: -3 | F: 4%

Cc1ccc(S(=O)(=O)N2CCN(C(=O)CSC3CCCC3)CC2)c(C)c1
  A: 26µM* | B: -1% | C: -1% | D: 11% | E: -6 | F: -12%

CC(=O)NC(CC(=O)OCC(=O)N1CCN(S(=O)(=O)c2ccc(Cl)cc2)CC1)c1ccccc1 (stereo unspecified)
  A: -15% | B: nt | C: 0% | D: nt | E: 2 | F: 0%

Cc1ccc(S(=O)(=O)N2CCN(C(=O)CSC(=S)N3CCCC3)CC2)c(C)c1
  A: ? | B: nt | C: 11% | D: nt | E: -4 | F: 0%

Cc1ccc(S(=O)(=O)N2CCN(CCc3ccccc3)CC2)c(C)c1
  A: 18µM* | B: nt | C: 2% | D: 9% | E: 1 | F: -2%

COc1ccnc2c1CCCCC2S(=O)c1nc2ccccc2[nH]1 (stereo unspecified)
  A: nt | B: nt | C: nt | D: nt | E: -2 | F: nt
